For one compound, inhibition results are on record in patent US20250120967A1, “TYROSINE KINASES INHIBITORS AND USES THEREOF” (GREAT NOVEL THERAPEUTICS BIOTECH & MEDICALS CORPORATION, priority 2023, published 2025).

For the test, the target named is T1, TYRO3 (RSE) (Homo sapiens, UniProt Q06418).
T1 sequence (Q06418 41-890): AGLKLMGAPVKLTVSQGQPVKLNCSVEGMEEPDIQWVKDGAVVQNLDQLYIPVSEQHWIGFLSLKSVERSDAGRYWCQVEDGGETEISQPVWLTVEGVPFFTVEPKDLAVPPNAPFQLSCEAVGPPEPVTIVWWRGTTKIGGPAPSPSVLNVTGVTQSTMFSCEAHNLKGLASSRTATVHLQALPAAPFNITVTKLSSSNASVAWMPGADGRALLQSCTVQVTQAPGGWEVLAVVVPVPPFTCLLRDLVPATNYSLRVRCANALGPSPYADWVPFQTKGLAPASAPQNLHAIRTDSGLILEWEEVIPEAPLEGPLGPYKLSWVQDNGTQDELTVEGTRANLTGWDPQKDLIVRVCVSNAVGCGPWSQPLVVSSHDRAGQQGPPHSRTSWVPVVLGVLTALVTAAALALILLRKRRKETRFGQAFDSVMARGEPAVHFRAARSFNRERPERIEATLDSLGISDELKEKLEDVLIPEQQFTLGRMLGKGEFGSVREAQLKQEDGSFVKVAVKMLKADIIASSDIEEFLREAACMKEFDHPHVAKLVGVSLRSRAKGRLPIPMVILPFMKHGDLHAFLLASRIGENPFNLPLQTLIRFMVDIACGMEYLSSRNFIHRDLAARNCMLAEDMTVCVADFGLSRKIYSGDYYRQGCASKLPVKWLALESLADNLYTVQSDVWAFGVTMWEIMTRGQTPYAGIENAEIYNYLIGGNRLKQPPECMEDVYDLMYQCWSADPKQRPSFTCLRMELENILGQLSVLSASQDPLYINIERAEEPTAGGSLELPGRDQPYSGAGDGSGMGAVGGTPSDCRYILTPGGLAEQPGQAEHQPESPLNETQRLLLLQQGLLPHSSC
Put plainly: Tyrosine kinase inhibition assay. Type of test: biochemical. The settings on record: read-out: percent inhibition. As for the experimental part: Tyrosine kinase inhibition assays were performed at ThermoFisher Life Technologies (Madison, WI, USA) using standard protocols (SelectScreen Biochemical Profiling Service, Thermo Fisher Scientific). ATP concentrations used were at the apparent Km. Test compounds were screened in 1% dimethylsulffoxide (DMSO) (final concentration) in the well. For 10-point titrations, 3-fold serial dilutions were conducted from the starting concentration of […]. All Peptide/Kinase Mixtures were diluted to a 2× working concentration in the appropriate Kinase Buffer. All ATP Solutions were diluted to a 4× working concentration in Kinase Buffer (50 mM HEPES pH 7.5, 0.01% BRIJ-35, 10 mM MgCl2, 1 mM EGTA). The apparent ATP Km was previously determined using a Z′-LYTE assay. The Development Reagent was diluted in Development Buffer.
The inhibition activities of compounds were determined in biochemical assays using single concentration (1.0 μM) measurements. The results were provided as percent inhibition values. […] 99 different tyrosine kinases were used.

Broadly, the inhibition is the share of the control response that was lost under treatment. As for `COc1cc2nccc(Oc3ccc(NC(=O)C4(C(=O)Nc5ccc(F)cc5)CC4)cc3)c2cc1OC` [Cabozantinib, reference compound], the inhibition at 1 µM was determined as 99%.
